## Binding of CDR-mutated scFvs to a peptide of the spike HR2 region

The target is the same throughout: PDVDLGDISGINAS, from the HR2 region of SARS-CoV-2 spike.

Parent: Ab-14, a human scFv built as VH, a 15-residue (Gly4Ser)3 linker, VL. Only the CDRs of the light chain vary.
VH: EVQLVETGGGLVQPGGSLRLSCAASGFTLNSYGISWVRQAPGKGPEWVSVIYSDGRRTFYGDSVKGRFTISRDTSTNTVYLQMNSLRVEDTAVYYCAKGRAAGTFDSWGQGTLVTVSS
VL: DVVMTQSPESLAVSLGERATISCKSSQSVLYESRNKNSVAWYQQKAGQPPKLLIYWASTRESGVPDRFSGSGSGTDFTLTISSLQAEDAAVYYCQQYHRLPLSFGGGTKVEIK

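Phage display of a naive human antibody library on the peptide gave the parent. This is the validation round: designs drawn from the data on random variants, tested in the same kind of assay. Their group label is 14L_En_Gibbs (En: ensemble of fine-tuned language models; Gibbs: Gibbs sampling). AlphaSeq pools MATa yeast showing the antibodies with MATalpha yeast showing the peptide. Binding brings cells together so that they mate, and sequencing counts the barcode pairs among the diploids. A regression on co-assayed BCL2-family reference pairs converts the normalised counts of each replicate to an apparent Kd. There are six technical replicates.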

Each variant's VL is given in full. Affinities are written as log10 Kd with Kd in nM; a lower number is a better binder. "nd" marks a missing value. The strain was present, yet no cells mated with the target were sequenced in that replicate, which points to weak or no binding. A sequence measured in both rounds can read differently, since the two assays cover different ranges. The authors' rule: three or more of the six replicates give a measured affinity, fewer mean a poor binder. Background: pairings of all light chain designs with three empty control strains gave a value in 4% of cases (median 2.64, 5th percentile 1.59). Values in that range, when seen in few replicates, are hard to tell from nonspecific mating. Also given: how often the same scFv was detected with the empty control strains, with their mean in brackets. Of ten entries with the parent sequence, four were seen in most replicates (averages 0.34 to 2.37), three in one and three in none, so single entries are noisy.

VL | log10 Kd, replicates | signal with controls
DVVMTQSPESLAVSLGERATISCHFSVETMEFMAKNKNIAWYQQKAGQPPKLLIYEVSTTMLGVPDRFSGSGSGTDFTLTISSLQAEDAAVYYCQQYARLPFMFGGGTKVEIK | 0.43 0.52 1.20 2.08 1.47 0.36 | 0 of 18
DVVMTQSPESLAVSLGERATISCKFMMSGEYQMHEQNNIAWYQQKAGQPPKLLIYQGNIKFVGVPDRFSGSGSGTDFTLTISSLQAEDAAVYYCQQYFRLPISFGGGTKVEIK | 1.09 0.87 0.77 0.46 0.79 0.86 | 2 of 18 (3.60)
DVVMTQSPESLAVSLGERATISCHSNGNLVMGERNKNHVAWYQQKAGQPPKLLIYSTDVRASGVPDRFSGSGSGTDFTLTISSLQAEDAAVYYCQQYSRLPFTFGGGTKVEIK | -0.06 0.08 0.01 0.06 0.04 0.04 | 2 of 18 (3.02)
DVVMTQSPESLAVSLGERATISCQINMEMYHDLNDAQNVAWYQQKAGQPPKLLIYDAMTEIPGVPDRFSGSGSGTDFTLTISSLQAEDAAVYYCQQYNRLPLSFGGGTKVEIK | 1.30 1.43 0.93 0.92 1.13 1.55 | 0 of 18
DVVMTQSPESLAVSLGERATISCKLMGNKVHGATRQYNIAWYQQKAGQPPKLLIYETTLVGQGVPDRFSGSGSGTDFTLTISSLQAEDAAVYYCQQYFHLPFIFGGGTKVEIK | nd nd 2.02 nd nd 2.99 | 2 of 18 (2.65)
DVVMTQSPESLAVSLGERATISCAVSIEHKENTAIWNAIAWYQQKAGQPPKLLIYDTSLRNNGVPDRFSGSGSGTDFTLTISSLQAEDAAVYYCQQYYQLPLSFGGGTKVEIK | 0.78 1.85 1.59 1.60 1.06 1.74 | 1 of 18 (2.83)
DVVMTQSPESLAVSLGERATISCLLQQDFYNERNQANAVAWYQQKAGQPPKLLIYDGNQLANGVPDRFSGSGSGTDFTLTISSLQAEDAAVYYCQDYARLPLVFGGGTKVEIK | 0.95 1.84 0.63 1.66 0.92 1.29 | 0 of 18
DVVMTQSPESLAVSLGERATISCKIQMNEGTLMENINSIAWYQQKAGQPPKLLIYNSEVIVQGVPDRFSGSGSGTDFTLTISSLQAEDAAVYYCQSYFRLPLSFGGGTKVEIK | 1.35 0.79 0.77 0.62 0.94 1.56 | 1 of 18 (4.13)
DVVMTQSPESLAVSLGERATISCIIEQGEWEQEQNQNAMAWYQQKAGQPPKLLIYDGETRMRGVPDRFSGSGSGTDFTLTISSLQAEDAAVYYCQQYYKLPLVFGGGTKVEIK | 0.90 0.87 0.63 0.83 1.10 0.54 | 1 of 18 (3.44)
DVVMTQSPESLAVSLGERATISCNMLPHMLEDQNIANAIAWYQQKAGQPPKLLIYEATMVYDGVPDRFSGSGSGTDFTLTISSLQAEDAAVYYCQQYLSLPLSFGGGTKVEIK | 0.70 nd 1.78 2.07 3.67 2.34 | 1 of 18 (2.18)
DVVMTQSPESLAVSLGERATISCHVKEDLNMGLKFQSSVAWYQQKAGQPPKLLIYSGAHREHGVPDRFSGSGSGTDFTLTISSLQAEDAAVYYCQQYYRLPLGFGGGTKVEIK | 0.52 0.25 0.53 0.60 0.64 0.67 | 2 of 18 (3.11)
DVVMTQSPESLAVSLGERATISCSLTSHEEEKEGAEASVAWYQQKAGQPPKLLIYEAVMLESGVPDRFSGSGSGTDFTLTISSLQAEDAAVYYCQQYHQLPLMFGGGTKVEIK | 1.49 1.56 1.76 1.16 1.56 2.72 | 1 of 18 (1.81)
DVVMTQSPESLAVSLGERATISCKLEEEADVITEIGNSVAWYQQKAGQPPKLLIYEMSMVMDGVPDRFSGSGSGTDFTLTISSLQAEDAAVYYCQQYHRLPLAFGGGTKVEIK | 1.13 0.74 0.47 0.62 0.81 0.73 | 0 of 18
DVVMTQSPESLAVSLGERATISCHIDQQTSYDNGRERAIAWYQQKAGQPPKLLIYDVTIRDWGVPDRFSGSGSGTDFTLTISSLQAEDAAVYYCQQYARLPLLFGGGTKVEIK | 0.77 0.21 0.47 0.20 0.36 0.37 | 0 of 18

2 of these entries, quoted again:

| VL | log10 Kd, replicates | signal with controls |
|---|---|---|
| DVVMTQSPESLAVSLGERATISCIIEQGEWEQEQNQNAMAWYQQKAGQPPKLLIYDGETRMRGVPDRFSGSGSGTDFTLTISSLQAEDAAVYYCQQYYKLPLVFGGGTKVEIK | 0.90 0.87 0.63 0.83 1.10 0.54 | 1 of 18 (3.44) |
| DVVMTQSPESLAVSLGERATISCSLTSHEEEKEGAEASVAWYQQKAGQPPKLLIYEAVMLESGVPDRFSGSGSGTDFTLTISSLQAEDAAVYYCQQYHQLPLMFGGGTKVEIK | 1.49 1.56 1.76 1.16 1.56 2.72 | 1 of 18 (1.81) |

Values reported by Li et al. 2023, doi:10.1038/s41467-023-39022-2 (FLAb copy).